# Ab-91 heavy chain CDR variants: yeast mating affinities

Data: MIT Lincoln Laboratory AlphaSeq set, Engelhart et al. 2022, doi:10.1038/s41597-022-01779-4, as distributed in FLAb.

All variants were tested on one target, the spike HR2 peptide PDVDLGDISGINAS (SARS-CoV-2).

Ab-91 is the parent antibody, in scFv form: VL, then a 15-residue (Gly4Ser)3 linker, then VH. The light chain is unchanged in all variants.
VL: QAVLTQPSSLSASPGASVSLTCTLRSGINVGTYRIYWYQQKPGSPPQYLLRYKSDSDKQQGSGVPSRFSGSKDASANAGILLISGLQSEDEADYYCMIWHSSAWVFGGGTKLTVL
VH: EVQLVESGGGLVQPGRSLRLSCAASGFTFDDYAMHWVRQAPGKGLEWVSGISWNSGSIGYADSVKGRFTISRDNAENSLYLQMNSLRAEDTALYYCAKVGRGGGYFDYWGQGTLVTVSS

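Library AAYL51 holds single substitutions and randomly drawn double and triple substitutions in the CDRs. The scFvs were displayed on barcoded MATa yeast, the peptide on MATalpha yeast. Mating (16 h, 30 °C) was followed by selection of diploids and sequencing of their barcodes. Scores were corrected for input abundance and mapped to Kd with protein pairs of known affinity run in the same pool. Mating was done three times.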

Changes read parent residue, position, new residue, counted from the first residue of the VH shown.
Values are log10 of the apparent Kd in nM; lower means stronger binding.
An entry "n.d." has no value in the source: the pair was not observed among the diploids in that replicate. This suggests poor binding but is not conclusive.
Empty control strains, which show no peptide, gave a signal in 21% of pairings with library AAYL51; the median was 4.54 and 95% of these signals were weaker than 3.26. No background was subtracted. The control count says in how many pairings with the empty strains this scFv gave a signal, with their mean in brackets.

| changes | replicates, log10 nM | signal with controls |
|---|---|---|
| T28C+D30G+D107F | n.d. n.d. n.d. | 0/9 |
| F29S+V64T+G104E | 4.18 4.98 n.d. | 6/9 (5.08) |
| A33D+D62R+Y105S | n.d. n.d. n.d. | 1/9 (2.80) |
| G26C+G100K+R101W | 2.22 2.13 1.82 | 1/9 (4.14) |
| D31V+S63T+V64F | n.d. n.d. n.d. | 0/9 |
| D31G+G50R+D62T | n.d. n.d. n.d. | 1/9 (4.12) |
| I58C+G59A | 4.56 3.89 n.d. | 2/9 (3.64) |
| G59P+Y60P+V99I | 4.27 5.22 n.d. | 5/9 (5.40) |
| F29E+D62F+G100E | n.d. 3.12 n.d. | 1/9 (3.21) |
| I51V+S52Y+S63K | 4.47 n.d. n.d. | 2/9 (3.96) |
| W53Q+D62W | n.d. 4.39 n.d. | 0/9 |
| G26P+G50W+S55D | n.d. n.d. n.d. | 0/9 |
| Y32T+W53H | 0.72 0.77 0.07 | 2/9 (4.90) |
| S52N+D62T | n.d. n.d. n.d. | 1/9 (3.46) |
| D31P+A61M+G102S | n.d. n.d. n.d. | 1/9 (5.34) |
| H35V+I58F+R101H | n.d. n.d. 4.28 | 2/9 (5.01) |
| D30H+A33S+G56M | 1.56 1.51 1.31 | 2/9 (5.46) |
| D31W+S52K+R101Q | 5.53 n.d. n.d. | 0/9 |
| A33K+W53A+K65D | n.d. n.d. n.d. | 0/9 |
| Y60H+G104T+Y105A | n.d. n.d. 5.04 | 5/9 (4.63) |
| G50L+I51Q+Y108P | 4.84 n.d. n.d. | 5/9 (5.01) |
| F29K+G50V+V99R | 5.71 4.73 n.d. | 3/9 (4.84) |
| N54T+S57L+Y105K | n.d. n.d. n.d. | 0/9 |
| T28V+Y32M+D107V | n.d. n.d. n.d. | 2/9 (4.15) |
| G100Q+G102P+Y105A | 4.12 n.d. n.d. | 1/9 (4.82) |
| D30R+D31F+F106A | 4.42 4.32 3.39 | 0/9 |
| M34K+A61R+S63A | 3.35 3.36 3.82 | 7/9 (5.12) |
| S63Q+V64L+F106R | n.d. n.d. n.d. | 0/9 |
| M34L+G100R+G102M | 3.86 4.24 3.65 | 2/9 (3.66) |
| G104I | 3.61 4.26 3.62 | 7/9 (4.81) |
| T28K+S55E+Y105A | 0.72 0.75 0.14 | 1/9 (4.23) |
| G104F | n.d. n.d. n.d. | 0/9 |
| G26M+Y60M+G104C | n.d. n.d. n.d. | 2/9 (3.68) |

The first 4 variants above that were never detected:

| changes | replicates, log10 nM | signal with controls |
|---|---|---|
| T28C+D30G+D107F | n.d. n.d. n.d. | 0/9 |
| A33D+D62R+Y105S | n.d. n.d. n.d. | 1/9 (2.80) |
| D31V+S63T+V64F | n.d. n.d. n.d. | 0/9 |
| D31G+G50R+D62T | n.d. n.d. n.d. | 1/9 (4.12) |